Laboratory results published in publication PMC10388327, “Dual Piperidine-Based Histamine H3 and Sigma-1 Receptor Ligands in the Treatment of Nociceptive and Neuropathic Pain” (Journal of Medicinal Chemistry, 2023).
Structures can show the parent of a compound that is named as a salt.

System: sigma-1 receptor (σ1R)
Assay: σ1R radioligand binding ([3H](+)-pentazocine)
Parameters: species or system guinea pig
Conditions: ratio of σ2R Ki to σ1R Ki

c1ccc(-c2ccc(OCCCCCN3CCCCC3)cc2)cc1 [Compound 10, 1-(5-([1,1′-Biphenyl]-4-yloxy)pentyl)piperidine Oxalate]
σ2/σ1 ratio: 0.1

c1ccc(-c2ccc(OCCCCCCN3CCCCC3)cc2)cc1 [Compound 11, 1-(6-([1,1′-Biphenyl]-4-yloxy)hexyl)piperidine Oxalate]
σ2/σ1 ratio: 0.4
